Experimental data reported in patent US20090192077A1, “North-2'deoxy -methanocarbathymidines as antiviral agents for treatment of kaposi's sarcoma-associated herpes virus” (priority 2005, published 2009).

Molecular target: T1, recombinant KSHV DNA polymerase (rPOL) and polymerase processivity factor (rPPF) (Human herpesvirus 8 type P, UniProt Q2HRD0)
T1 sequence (Q2HRD0 1-1012): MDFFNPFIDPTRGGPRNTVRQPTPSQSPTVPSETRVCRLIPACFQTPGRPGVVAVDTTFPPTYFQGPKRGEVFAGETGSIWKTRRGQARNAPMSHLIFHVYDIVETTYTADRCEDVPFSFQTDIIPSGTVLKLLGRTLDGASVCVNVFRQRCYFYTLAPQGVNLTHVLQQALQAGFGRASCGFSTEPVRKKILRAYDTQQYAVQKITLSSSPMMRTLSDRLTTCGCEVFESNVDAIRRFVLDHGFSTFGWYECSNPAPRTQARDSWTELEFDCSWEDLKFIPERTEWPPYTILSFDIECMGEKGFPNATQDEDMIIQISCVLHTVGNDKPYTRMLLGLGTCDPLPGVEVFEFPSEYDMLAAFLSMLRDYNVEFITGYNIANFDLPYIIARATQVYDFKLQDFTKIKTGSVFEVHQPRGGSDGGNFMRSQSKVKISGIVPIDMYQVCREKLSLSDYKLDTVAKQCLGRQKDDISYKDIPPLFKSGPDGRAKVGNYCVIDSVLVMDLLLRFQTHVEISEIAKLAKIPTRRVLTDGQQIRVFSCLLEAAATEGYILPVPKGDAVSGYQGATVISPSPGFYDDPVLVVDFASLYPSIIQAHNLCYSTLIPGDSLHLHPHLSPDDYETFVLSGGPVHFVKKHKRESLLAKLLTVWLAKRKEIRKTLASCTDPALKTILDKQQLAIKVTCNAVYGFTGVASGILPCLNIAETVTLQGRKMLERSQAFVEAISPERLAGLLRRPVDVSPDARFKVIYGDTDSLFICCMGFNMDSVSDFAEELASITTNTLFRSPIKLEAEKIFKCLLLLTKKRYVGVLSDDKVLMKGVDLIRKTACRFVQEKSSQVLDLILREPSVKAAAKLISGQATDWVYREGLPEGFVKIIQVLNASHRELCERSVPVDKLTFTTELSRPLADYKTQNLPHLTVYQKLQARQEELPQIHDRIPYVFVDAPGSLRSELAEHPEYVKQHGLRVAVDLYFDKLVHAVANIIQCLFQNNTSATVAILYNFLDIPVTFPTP
T1 sequence (F5HID2 1-396 partner): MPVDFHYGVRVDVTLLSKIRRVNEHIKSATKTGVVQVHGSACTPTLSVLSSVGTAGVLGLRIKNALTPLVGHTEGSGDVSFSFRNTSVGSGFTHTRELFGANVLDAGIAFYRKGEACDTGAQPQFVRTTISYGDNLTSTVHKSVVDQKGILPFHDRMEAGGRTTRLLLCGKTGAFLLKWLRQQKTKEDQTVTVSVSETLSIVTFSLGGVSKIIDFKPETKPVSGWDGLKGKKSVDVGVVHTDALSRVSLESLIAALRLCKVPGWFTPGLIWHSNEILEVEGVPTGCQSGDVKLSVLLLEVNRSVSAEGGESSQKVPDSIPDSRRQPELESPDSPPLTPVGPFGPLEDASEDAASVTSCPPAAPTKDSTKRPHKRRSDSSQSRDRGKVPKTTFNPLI
Assay: biochemical
Procedure: KSHV rPOL and rPPF were expressed and purified from the recombinant baculovirus-vector infected Sf9 cells (Dorjsuren, D. et al. 2003 Protein Expr Purif 29:42-50). […] The amounts of newly synthesized DNA, which incorporated DIG-dUTP, were determined by the DIG detection kit (Roche Applied Science) according to the manufacturer's instructions.

For `Cc1cn([C@H]2C[C@H](O)[C@]3(COP(=O)(O)OP(=O)(O)OP(=O)(O)O)C[C@H]23)c(=O)[nH]c1=O` [N-MCT-TP, North-methanocarbathymidine triphosphate], the IC50 was 6.24 ± 0.08 µM, the IC90 (read-out: IC90, KSHV rPOL/rPPF-mediated DNA synthesis) was 76.5 ± 14 µM and the “% inhibition of DNA synthesis reached” value (within the concentrations tested (up to 500 μM)) was “greater than 90%”.
